Results as given in BindingDB's records for doi:10.1021/cb900218c (Case Western Reserve University, 2010).

Chains of the proteins cited; added tags and fusions are not shown. Lines headed by an entry give the natural chain unless they say otherwise; changes in a name come on top.
UniProt P06710: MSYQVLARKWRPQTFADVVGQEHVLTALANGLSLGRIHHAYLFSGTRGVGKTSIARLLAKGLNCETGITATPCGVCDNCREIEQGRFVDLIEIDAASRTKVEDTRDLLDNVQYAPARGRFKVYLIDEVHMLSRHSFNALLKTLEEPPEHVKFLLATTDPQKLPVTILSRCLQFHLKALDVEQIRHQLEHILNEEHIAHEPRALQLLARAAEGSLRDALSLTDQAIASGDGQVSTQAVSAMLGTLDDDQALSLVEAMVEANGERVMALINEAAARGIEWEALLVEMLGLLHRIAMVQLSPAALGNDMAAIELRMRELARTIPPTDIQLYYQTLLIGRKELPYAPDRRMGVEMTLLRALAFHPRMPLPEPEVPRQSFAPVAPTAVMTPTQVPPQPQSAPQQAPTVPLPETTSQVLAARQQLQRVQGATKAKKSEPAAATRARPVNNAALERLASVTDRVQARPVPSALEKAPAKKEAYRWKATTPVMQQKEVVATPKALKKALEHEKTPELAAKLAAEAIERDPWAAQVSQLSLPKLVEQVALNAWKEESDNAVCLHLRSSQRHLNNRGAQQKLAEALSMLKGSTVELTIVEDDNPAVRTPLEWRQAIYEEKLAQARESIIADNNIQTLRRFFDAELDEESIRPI

Tests used:
Test in all cases: colorimetric ATPase assay
[1] = molecular target: T1, Sliding-clamp-loader large/small subunit (Enterobacteria phage T4, UniProt P04526+P04527); conditions: pH 7.5; 25 °C
T1 sequence (P04526 whole entry): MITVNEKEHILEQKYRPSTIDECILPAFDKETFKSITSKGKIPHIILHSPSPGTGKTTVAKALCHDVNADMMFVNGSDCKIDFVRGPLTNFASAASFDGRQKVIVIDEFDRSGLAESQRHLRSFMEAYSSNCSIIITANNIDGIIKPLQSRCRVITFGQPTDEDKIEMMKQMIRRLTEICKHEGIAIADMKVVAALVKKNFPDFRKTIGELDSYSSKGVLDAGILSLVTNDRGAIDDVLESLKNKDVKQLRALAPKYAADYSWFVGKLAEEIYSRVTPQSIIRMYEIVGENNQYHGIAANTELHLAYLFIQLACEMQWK
T1 sequence (P04527 whole entry): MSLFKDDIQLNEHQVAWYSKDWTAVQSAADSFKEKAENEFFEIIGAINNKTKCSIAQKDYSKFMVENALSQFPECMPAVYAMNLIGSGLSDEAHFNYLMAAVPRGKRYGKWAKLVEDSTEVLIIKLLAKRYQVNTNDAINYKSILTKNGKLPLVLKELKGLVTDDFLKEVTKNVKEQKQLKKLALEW
Description: (§1) ATPase assay contained 10 mM Mg2+, 1uM 13/20 DNA, 500uM (r)NTP or (d)NTP, 500 nM gp45, and 500 nM gp44/62 in T4 buffer. ATPase activity was measured by monitoring the release of Pi using a malachite green assay (31) or via the hydrolysis of [gamma-32P]-ATP. Reaction inhibition studies used identical conditions except for the inclusion of variable concentrations of inhibitor (0-400 uM) and a fixed concentration of ATP (32.5 nM [gamma-32P]-ATP and 100 uM unlabeled ATP).

[2] = molecular target: Complex of Sliding-clamp-loader large subunit [R175K] and Sliding-clamp-loader small subunit (Enterobacteria phage T4, UniProt P04526, R175K); conditions: pH 7.5; 25 °C
Description: as §1

[3] = molecular target: Complex of Sliding-clamp-loader large subunit [R175L] and Sliding-clamp-loader small subunit (Enterobacteria phage T4, UniProt P04526, R175L); conditions: pH 7.5; 25 °C
Description: as §1

[4] = molecular target: DNA polymerase III subunit tau (Escherichia coli, UniProt P06710); conditions: pH 7.5; 37 °C

In the case of `O=[N+]([O-])c1ccc2c(ccn2[C@H]2C[C@H](O)[C@@H](COP(=O)(O)OP(=O)(O)OP(=O)(O)O)O2)c1` [5-nitro-indolyl-2'-deoxyriboside triphosphate], the Ki [1] is reported as 4.8 µM, the Ki [2] is reported as 13.8 µM and the Ki [3] is reported as 16.4 µM.

`O=C(O)c1ccc2c(ccn2[C@H]2C[C@H](O)[C@@H](COP(=O)(O)OP(=O)(O)OP(=O)(O)O)O2)c1` [5-carboxylate-indolyl-2'-deoxyriboside triphosphate] showed a Ki [4] of 40 µM, a Ki [1] of 37 µM and a Ki [2] of 40.6 µM. The Ki [3] was under 200 µM.
